This passage reports Ki results from ChEMBL document CHEMBL1134315 (J Med Chem, 2001).

Protein sequences, listed by entry. Tags and fused reporters are not part of them.
UniProt P20272, whole entry: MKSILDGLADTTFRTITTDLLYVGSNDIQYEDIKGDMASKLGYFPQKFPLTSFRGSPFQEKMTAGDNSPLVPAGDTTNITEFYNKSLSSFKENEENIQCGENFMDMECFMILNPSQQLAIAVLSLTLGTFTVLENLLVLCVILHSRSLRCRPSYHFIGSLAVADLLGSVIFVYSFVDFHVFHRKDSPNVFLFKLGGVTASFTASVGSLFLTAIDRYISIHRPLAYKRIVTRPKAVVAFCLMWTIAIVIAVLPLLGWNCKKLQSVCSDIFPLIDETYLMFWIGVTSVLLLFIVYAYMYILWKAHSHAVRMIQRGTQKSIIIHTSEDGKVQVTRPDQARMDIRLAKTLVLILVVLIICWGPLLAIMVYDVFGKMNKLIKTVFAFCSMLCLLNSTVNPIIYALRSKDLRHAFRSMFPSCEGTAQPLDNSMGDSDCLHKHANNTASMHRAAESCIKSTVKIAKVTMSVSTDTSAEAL

The experiment addresses Cannabinoid receptor 1 (Rattus norvegicus, UniProt P20272). Nature of the experiment: Binding affinity to CB1 cannabinoid receptor using [3H]WIN-55212-2 in rat cerebellum membranes. Format: cell membranes, Membrane.

The Ki is a dissociation constant, usually derived from enzyme kinetics or from competition with a known ligand.

The compound `CCCCC/C=C\C/C=C\C/C=C\C/C=C\CCCC(=O)NCCO` [ANANDAMIDE] gave a Ki of 285 nM.
